Test system: peripheral blood mononuclear cells (PBMCs)
Test: MTT cytotoxicity assay in PBMCs (selectivity)
Type: cell-based
Conditions: IC50 for PBMC/IC50 for Jurkat cell line
Method: A549 (ATCC, Manassas, VA, USA) and MCF-7 (ATCC, VA, USA) cells were grown in Dulbecco’s Modified Eagle Medium (DMEM; Wako, Osaka, Japan) containing 10% fetal bovine serum (FBS; Equitech-Bio, Kerrville, TX, USA). Jurkat T-cells (ATCC, VA, USA) were maintained in RPMI-1640 medium (Wako Pure Chemical Industries, Osaka, Japan) supplemented with 10% FBS, while PBMCs (Precision Bioservices, Frederick, MD, USA) were expanded in the same medium supplemented with 10% human AB serum (Gemini, Woodland, CA, USA). Streptomycin was added to all culture media at a final concentration of 89 µg/mL (Meiji Seika Pharma, Tokyo, Japan). All cells were kept at 37 °C under humidified conditions with 5% CO2. For viability measurements, A549 and MCF-7 cells were seeded into 24-well plates, whereas PBMCs were dispensed into 96-well plates (Iwaki, Asahi Glass, Chiba, Japan) at initial densities of 4 × 10^4 cells/mL and 5 × 10^5 cells/mL, respectively. […] Concentrated stock solutions were prepared in dimethyl sulfoxide (DMSO; Wako Pure Chemical Industries) and diluted with culture medium to final assay concentrations ranging from […]. The DMSO content was kept constant at 1% in all wells. Cell viability was assessed using the MTT colorimetric assay (Dojindo, Kumamoto, Japan), following established procedures with minor protocol refinements previously reported in the literature.

CS(=O)(=O)CCNCc1ccc(-c2ccc3ncnc(Nc4ccc(OCc5cccc(F)c5)c(Cl)c4)c3c2)o1 [Lapatinib, lapatinib, reference compound]
SI (Selectivity Index): 7.25
